E-sel inducer – E-selectin induction in HUVECs, primary screen, imaging, HUVEC, immunofluorescence imaging, single point; P16581; normalized: neutral wells 0, TNF-alpha wells 100; activation, % at 7.58 µM; 0.37% of 260,000 active; AID 686992, 2013;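 active = mean E-selectin-positive cell signal at least 10% of the positive control, reached in at least 60% of replicates, without over 20% cell loss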
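Assay system: HUVEC primary endothelial cells. Input: 3,000 HUVEC seeded per well. Doses: one compound dose added by pin transfer. Read-out basis: % PE-positive cells. Benchmarks: TNF-alpha high, DMSO low. Detection: immunofluorescence imaging. Buffer or medium: EGM-2, gelatin.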
DENV2 CPE – inhibitors of DENV2 cytopathic effect, primary screen, cell-based, plate reader, single concentration | CPE inhibition, % at 9.99 µM | DENV2-infected cells, cytopathic effect rescue | 1.7% of 350,000 active; in the data active = CPE inhibition above about 20%, passing the limit was not always enough; tested in BHK-21 cells;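 also: 0% = median of neutral control wells and 100% = median of positive control wells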
UUG fidelity – modulators of start codon recognition fidelity in yeast; AID 602363; activity score, % at 18.7 µM; S. cerevisiae UUG-firefly luciferase reporter, luminescence/redox ratio; actives 0.13% (n = 350,000);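 active = replicate mean at a twofold rise or more, about +100% in these data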;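 note: firefly luciferase made from a UUG start codon reports start codon fidelity; reporter light over untreated wells divided by growth signal over untreated wells; some hits fall short of that in this replicate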
Cneo AK release – Cryptococcus neoformans cell lysis inducers, primary screen, AK release luminescence, single concentration; C. neoformans lysis, adenylate kinase release luminescence, 4 h; normalised: neutral wells 0, clomiphene wells 100; 0.2% of 360,000 active; lysis activity, % at 15 µM; AID 651654, 2012;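 active = mean lysis activity across replicates of at least 80%, whatever share of replicates individually reach that level; inactive = mean lysis activity below 80%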
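Assay system: log-phase C. neoformans yeast / Quantity: yeast cell density of 5 × 10^6 cells/mL / Medium: fresh YPD growth medium / Compound: single dose / Timing: static 4 h at 37 °C with compound, 1 h detection / Measured by: adenylate kinase release luminescence / Read-out: lysis from increased AK signal / Benchmarks: Clomiphene as positive lysis control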
* marks the source's active call; other numbers are inactive results; . = not tested or not shown. Rows were chosen to be rich in hits. Some 1.8% of all compounds tested hit in one or more screens of this group.

Assay codes – A = E-sel inducer; B = DENV2 CPE; C = UUG fidelity; D = Cneo AK release
SMILES: CO[C@H]1CN(C)C(=O)c2ccc(NC(=O)CC(F)(F)F)cc2OC[C@@H](C)N(C(=O)C2CC2)C[C@@H]1C
  A = 0; B = 3; C = .; D = .
SMILES: CO[C@H]1CN(C)C(=O)c2cc(NC(=O)CC(F)(F)F)ccc2OC[C@H](C)N(C(=O)C2CCOCC2)C[C@@H]1C
  A = 0; B = 27*; C = .; D = .
SMILES: CO[C@@H]1CN(C)C(=O)c2ccc(NC(=O)CC(F)(F)F)cc2OC[C@@H](C)N(C(=O)C2CCOCC2)C[C@@H]1C
  A = 0; B = 24*; C = .; D = .
SMILES: CO[C@@H]1CN(C)C(=O)c2cc(NC(=O)CC(F)(F)F)ccc2OC[C@H](C)N(C(=O)C2CCOCC2)C[C@@H]1C
  A = 0; B = 26*; C = .; D = .
SMILES: CO[C@H]1CN(C)C(=O)c2cc(NC(=O)CC(F)(F)F)ccc2OC[C@H](C)N(C(=O)C2CCOCC2)C[C@H]1C
  A = 0; B = 19; C = .; D = .
SMILES: O=C(N[C@H]1CC[C@H](CCn2cc(C3(O)CCCC3)nn2)O[C@@H]1CO)C1CC1
  A = 0; B = 5; C = -6; D = 2
SMILES: CN1CCN(C(=O)C[C@H]2C[C@H]3c4cc(NC(=O)c5ccc6c(c5)OCO6)ccc4O[C@H]3[C@@H](CO)O2)CC1
  A = 0; B = 1; C = .; D = -5
SMILES: COc1ccc(-c2nc3c(C)cc(Br)cn3c2Cc2cccc(F)c2)cc1OC
  A = 0; B = 89*; C = -10; D = 0
SMILES: Cc1ccc2nc(-c3cccc(Br)c3)c(Cc3cccc(Cl)c3)n2c1
  A = .; B = 54*; C = -2; D = 0
SMILES: COc1ccc(-c2nc3c(C)cc(Br)cn3c2Cc2ccccc2)cc1OC
  A = 1; B = -15; C = -2; D = 1
SMILES: COc1ccc(-c2nc3ccc(C)cn3c2Cc2cccc(F)c2)cc1OC
  A = 0; B = 33*; C = 38; D = 9
SMILES: Cc1ccc(Cc2c(-c3ccc(C)cc3)nc3ccc(Cl)cn23)cc1
  A = 0; B = 25*; C = -18; D = -1
SMILES: O=C(N[C@H]1CC[C@H](CCNS(=O)(=O)c2ccccc2Cl)O[C@H]1CO)c1ccccc1
  A = -1; B = 8; C = 2; D = -1
SMILES: C[C@H]1CN([C@@H](C)CO)C(=O)Cc2cc(NS(=O)(=O)c3cn(C)cn3)ccc2O[C@@H]1CN(C)Cc1ccncc1
  A = .; B = -4; C = 1; D = 0
SMILES: O=C(C[C@H]1C[C@H]2c3cc(NC(=O)C4CCOCC4)ccc3O[C@H]2[C@H](CO)O1)NC1CCCC1
  A = 0; B = -6; C = 1; D = 3

Single records, from the list above. Screens in order: E-sel inducer | DENV2 CPE | UUG fidelity | Cneo AK release
CO[C@@H]1CN(C)C(=O)c2cc(NC(=O)CC(F)(F)F)ccc2OC[C@H](C)N(C(=O)C2CCOCC2)C[C@@H]1C across the screens: 0 | 26* | . | .
C[C@H]1CN([C@@H](C)CO)C(=O)Cc2cc(NS(=O)(=O)c3cn(C)cn3)ccc2O[C@@H]1CN(C)Cc1ccncc1 across the screens: . | -4 | 1 | 0
O=C(N[C@H]1CC[C@H](CCNS(=O)(=O)c2ccccc2Cl)O[C@H]1CO)c1ccccc1 across the screens: -1 | 8 | 2 | -1
CO[C@H]1CN(C)C(=O)c2cc(NC(=O)CC(F)(F)F)ccc2OC[C@H](C)N(C(=O)C2CCOCC2)C[C@@H]1C across the screens: 0 | 27* | . | .

(more compounds)
Assay codes – A = E-sel inducer; B = DENV2 CPE; C = UUG fidelity; D = Cneo AK release
SMILES: C[C@@H]1CN([C@@H](C)CO)S(=O)(=O)c2ccc(C#CC(C)(C)O)cc2O[C@@H]1CN(C)C(=O)C1CC1
  A = 1; B = .; C = .; D = .
SMILES: COc1ccc(CN(C)C[C@H]2Oc3ccc(NS(=O)(=O)c4ccccc4)cc3C(=O)N([C@H](C)CO)C[C@@H]2C)cc1
  A = 4; B = -10; C = 20; D = 0
SMILES: CC1CCN(C(=O)c2ccc(CNc3c(N4CCCC4)c(=O)c3=O)cc2)CC1
  A = 0; B = -6; C = -4; D = 0
SMILES: O=C(c1ccc(CNc2c(N3CCCC3)c(=O)c2=O)cc1)N1CCN(C2CCCCC2)CC1
  A = 1; B = 78*; C = -11; D = -5
SMILES: CCN(Cc1ccccc1)S(=O)(=O)c1ccc(C(=O)N(CCCN(C)C)c2nc3cc(C)cc(C)c3s2)cc1
  A = .; B = 78*; C = -4; D = 6
SMILES: CN(C)c1ccc2c(c1)[C@@H]1C[C@H](CC(=O)NCc3ccc(Cl)cc3)O[C@@H](CO)[C@@H]1O2
  A = -1; B = 4; C = .; D = .
SMILES: C[C@@H]1CN([C@@H](C)CO)C(=O)c2cc(C#CC3CC3)cnc2O[C@@H]1CN(C)C(=O)c1ccccc1
  A = 97*; B = 14; C = 25; D = 14
SMILES: C[C@H](CO)N1C[C@H](C)[C@@H](CN(C)C(=O)C2CC2)Oc2ncc(C#CC3CCCC3)cc2C1=O
  A = -1; B = 25*; C = -1; D = 2
SMILES: C[C@@H]1CN([C@@H](C)CO)C(=O)c2cc(C#CC3CCCC3)cnc2O[C@H]1CN(C)C(=O)C1CC1
  A = 0; B = 28*; C = 3; D = -1
SMILES: C[C@@H]1CN([C@@H](C)CO)C(=O)c2cc(C#CC3CCCC3)cnc2O[C@@H]1CN(C)C(=O)C1CCC1
  A = -1; B = -4; C = 15; D = 4
SMILES: COc1ccc(CN(C)C[C@@H]2OCCCC[C@H](C)Oc3ccc(NC(=O)NC4CCCCC4)cc3C(=O)N([C@H](C)CO)C[C@@H]2C)cc1
  A = 1; B = 0; C = 8; D = -2
SMILES: COc1ccc2c3c(n(C)c2c1)[C@H](CO)N(C(=O)CN1CCOCC1)CC31CCN(C(=O)C2CC2)CC1
  A = 0; B = -3; C = .; D = .
SMILES: COc1ccc(C)cc1NC(=O)C(OC(=O)CNC(=O)c1cc(C)cc(C)c1)c1ccccc1 (stereo not given)
  A = .; B = 1; C = .; D = .
SMILES: COc1ccc(C)cc1NC(=O)C(NCC(O)c1ccccc1)c1ccccc1 (stereo not given)
  A = 52*; B = 2; C = -7; D = -1
SMILES: CC(C)CC#Cc1cnc2c(c1)C(=O)N([C@H](C)CO)C[C@@H](C)[C@H](CN(C)Cc1ccccc1C(=O)O)O2
  A = -1; B = 13; C = 24; D = 35

(next part)
Assay codes – A = E-sel inducer; B = DENV2 CPE; C = UUG fidelity; D = Cneo AK release
SMILES: C[C@@H]1CN([C@@H](C)CO)C(=O)c2cccc(NS(=O)(=O)c3ccc(F)cc3)c2O[C@H]1CN(C)Cc1ccc(C(=O)O)cc1
  A = 66*; B = 0; C = 5; D = 23
SMILES: C[C@H](CO)N1C[C@H](C)[C@H](CN(C)Cc2ccccc2)Oc2c(NS(=O)(=O)c3ccc(F)cc3)cccc2C1=O
  A = 0; B = 104*; C = 6; D = 54
SMILES: C[C@H](CO)N1C[C@H](C)[C@H](CN(C)Cc2ccc(C(=O)O)cc2)Oc2c(NS(=O)(=O)c3ccccc3)cccc2C1=O
  A = 0; B = 50*; C = -9; D = -2
SMILES: C[C@@H]1CN([C@H](C)CO)C(=O)c2cccc(NS(=O)(=O)c3ccc(Cl)cc3)c2O[C@H]1CN(C)Cc1ccccc1
  A = 0; B = 25*; C = 1; D = 3
SMILES: C[C@H](CO)N1C[C@H](C)[C@H](CN(C)Cc2ccc(C(=O)O)cc2)Oc2c(NS(=O)(=O)c3ccc(F)cc3)cccc2C1=O
  A = 1; B = 13; C = 7; D = -2
SMILES: CC1CN(CCOc2cccc(Oc3ccccc3)c2)CC(C)O1 (stereo not given)
  A = .; B = -4; C = -11; D = 2
SMILES: CC1CCCN(CCOc2cccc(Oc3ccccc3)c2)C1 (stereo not given)
  A = 0; B = 53*; C = -15; D = 4
SMILES: Cc1noc(C)c1S(=O)(=O)N(C)C[C@@H]1OCCCC[C@H](C)Oc2ccc(NC(=O)C3CCCCC3)cc2C(=O)N([C@H](C)CO)C[C@H]1C
  A = 0; B = -9; C = 4; D = -2
SMILES: CCOc1c2ccc(C(=O)NCc3ccc4c(c3)OCO4)cc2nn1CC
  A = 0; B = 32*; C = -21; D = -4
SMILES: CCCn1nc2cc(C(=O)NCc3ccc4c(c3)OCO4)ccc2c1OCC
  A = 0; B = -2; C = -18; D = -1
SMILES: COc1cc(OC)cc(C(=O)NCc2ccc3c(c2)OCO3)c1
  A = .; B = 29*; C = -13; D = -1
SMILES: COc1cccc(C(=O)NCc2ccc3c(c2)OCO3)c1
  A = 4; B = -2; C = -11; D = 0
SMILES: O=C(N[C@H]1CC[C@@H](CC(=O)N2CCCCC2)O[C@@H]1CO)c1ccc2c(c1)OCO2
  A = 0; B = 5; C = -5; D = -13
SMILES: C[C@@H]1CN([C@H](C)CO)C(=O)c2c(c3ccccc3n2C)-c2ccccc2CO[C@@H]1CN(C)S(=O)(=O)c1ccc(Cl)cc1
  A = 0; B = -1; C = -11; D = -4
